The target of the assay is human FGFR-3 (Homo sapiens (Human), UniProt P22607). Nature of the assay: FGFR-3 kinase assay (TR-FRET). As to conditions: read-out: FGFR-3 IC50. It is filed as biochemical. A general note: TR-FRET usually uses a lanthanide donor and a delayed reading to cut background.

Protein sequences, listed by entry. Tags and fused reporters are not part of them. Residues count along the entry.
UniProt P22607, 397-806 limits assumed: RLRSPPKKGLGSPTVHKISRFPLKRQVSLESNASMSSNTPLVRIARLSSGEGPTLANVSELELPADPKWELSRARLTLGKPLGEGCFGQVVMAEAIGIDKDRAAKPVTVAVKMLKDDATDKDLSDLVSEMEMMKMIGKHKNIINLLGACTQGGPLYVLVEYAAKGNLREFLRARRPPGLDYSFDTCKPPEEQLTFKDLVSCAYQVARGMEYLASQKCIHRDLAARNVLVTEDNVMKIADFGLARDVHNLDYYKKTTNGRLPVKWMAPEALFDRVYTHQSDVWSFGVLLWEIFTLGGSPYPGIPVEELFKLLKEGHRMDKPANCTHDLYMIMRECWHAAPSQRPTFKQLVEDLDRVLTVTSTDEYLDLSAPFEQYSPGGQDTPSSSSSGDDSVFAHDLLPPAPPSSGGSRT

We go through one compound from US9598416B2, “Substituted benzothienyl-pyrrolotriazines and uses thereof in the treatment cancer” (Bayer Intellectual Property GmbH, priority 2011, dated 2017).

Take `CCN1CCCC1CNCc1cn2ncnc(N)c2c1-c1cc2cc(C)cc(OC)c2s1` (stereo not shown): the IC50 (as a rule, the concentration that inhibits the measured activity by half) stood at 5 nM.
